System: μ-opioid receptors
Test: Evaluation of antagonist activity, guinea pig ileum test (responses to DAMGO)
Protocol: Agonist/antagonist activity at the μ-opioid receptor was determined using the well known guinea pig ileum test. Briefly, an a section of ileum section was placed in a stabilizing solution in a tensed state. Transducers were used to measure changes in tension upon electrical stimulation to the tissue before and after challenge with a potential agonist/antagonist Using a control, constriction inhibition, and constriction inhibition cancellation, may be measured.
The results are expressed as a percent of the control response to DAMGO (decrease in which contract amplitude)

C=CCN1CC[C@]23c4c5ccc(O)c4O[C@H]2C(=O)CC[C@@]3(O)[C@H]1C5 [naloxone, reference compound]
Responses to DAMGO (1.0E−07 M) in the presence of increasing concentrations of the compounds (1.0E−07 M): −6% of the control response to DAMGO | Responses to DAMGO (1.0E−07 M) in the presence of increasing concentrations of the compounds (5.0E−09 M): 85% of the control response to DAMGO | Responses to DAMGO (1.0E−07 M) in the presence of increasing concentrations of the compounds (20E−08 M): 51% of the control response to DAMGO
